Results taken from patent publication US20250332263A1, “SURFACTANT STABILIZERS” (NOVARTIS AG, priority 2021, published 2025).
“Also recorded” adds a separate entry of the source.

Key:
protein 1 = test: Equilibrium surface tension, pendant-drop tensiometer (protein displacement at air/water interface); type: physicochemical; settings: for equilibrium surface tension / surface activity: surfactant in histidine buffer, absence or presence of protein 1, compared with protein 1 without surfactant, 60 min
Description: The aim of this experiment was to investigate the type of stabilization mechanism which the surfactants employ in protein-containing formulations. A Pendant-Drop Tensiometer was utilized to determine protein (API) displacement by surfactants at the air/water interface. Surfactant interface saturation mitigates the risk of interfacial stress for proteins and associated negative effects potentially impacting protein quality attributes.
The protein corresponding buffer was prepared and sterile filtered using a 0.22 μm filter unit. The surfactant in question was added into the buffer using a 5% stock solution as described earlier.
The buffer surfactant mix was aliquoted in 2 Nalgene bottles. To one of the two bottles was added the respective API in question to reach a final concentration of 1 mg/mL for protein 1 and 10 mg/mL for proteins 2 and 3.
Equilibrium surface tension was measured using the PAT-1M tensiometer (Sinterface). The system was rinsed 12 times with the sample to be measured. A hanging drop of constant volume (20 μL) was measured every second for 60 min. Drug substance samples with and without surfactants were measured at the same day to avoid operator, sample and day to day variations.

Platelets = test: Inhibition of platelet aggregation, Whole Blood Aggregometry (WBA); type: cell-based, human; settings: for inhibition of platelet aggregation: 0.04% or 0.01% surfactant, 10 minutes at 37° C., agonists AA, TRAP6, collagen, ADP
Description: Human whole blood of 6 healthy volunteers was incubated with 0.04% or 0.01% surfactants for 10 minutes at 37° C. Saline solution was used as negative control. Platelets were activated with four independent agonists: arachidonic acid (AA), thrombin receptor activator peptide (TRAP6), collagen and ADP. Aggregation was measured through Whole Blood Aggregometry (WBA).
Whole Blood Aggregometry (WBA) consists of immerging electrodes into whole blood which measure the impedance between them. The addition of a platelet agonist activates the aggregation, resulting in an increase of impedance over time. This increase can be compared between a negative control and a testing sample to derive the degree of platelet inhibition.

dendritic cells = test: Dendritic cell activation; type: cell-based, human
Description: Dendritic cell activation: Human whole blood was used to extract monocytes using MACS (magnetic activated cell sorting) according to manufacturer's instructions (Miltenyi Biotec Order no. 130-114-980). Cells were incubated for 6 days in respective differentiation media (Miltenyi DC differentiation medium order no. 130-094-812) resulting in dendritic cells. Cells were incubated in medium with surfactants in question for 48 h and subsequently stained for cell activation using fluorescently labeled antibodies (Mouse Anti-Human CD14 PerCP-Cy5.5 order no. 562692 from BD to check monocyte negative; Mouse Anti-Human CD11c BV605 from BD to check dendritic cell differentiation and Mouse Anti-Human CD80 FITC order no. 557226 from BD to check cell activation).

[1] = tested on: protein 1 (disordered protein); test: Orbital shaking forced degradation, particle count by micro-flow-imaging, Protein 1; type: physicochemical; settings: orbital shaking 250 rpm, ambient temperature, 0 h, 7 h and 24 h
Description: (§1) The API corresponding buffer was prepared with 20 mM Histidine, 220 mM Succrose pH 5.8 in water. The respective surfactant stock solution in question was added into the buffer accordingly in order to reach the final surfactant concentration (Brij58succinate 0.01% (w/v); Vit E variants 0.04% (w/v); SPGS-550-M 0.01% (w/v))
(§2) The aim of this experiment was to investigate the effect of amphiphilic surfactants to protect proteins from interfacial stress, such as that which is present during manufacturing, transport and application. As a proxy for this stress the forced degradation assay (orbital shaking), applying mechanical stress, was used in order to determine whether chosen surfactants stabilize three different protein API's (disordered protein, Fab, mAb) against mechanical stress (mitigating particle creation (protein aggregates)).
(§3) To each protein API was added the respective amount of surfactant (5% stock solution) needed to reach the final surfactant concentration (Brij58 0.01%; VitE variants 0.04%; SPGS-550-M 0.01%), as described earlier. 1.2 mL of sample was aliquoted in each 6R vial (2x). Vials of same sample were pooled after the study in order to generate enough volume for all analytical testing.
Mechanical stress was generated through orbital shaking at 250 rpm at ambient temperature for 0 h, 7 h, 24 h and 48 h using an orbital shaker. Samples were subsequently analyzed via micro-flow-imaging (MFI). Particle count >2 μm/mL was visualized by MF.

[2] = tested on: host cell proteins (HCPs) of Protein 4; test: Enzymatic degradation of surfactant in protein 4 formulation; type: physicochemical; settings: 0.02% PS80 or 0.04% other surfactants, one month at 5° C. or 40° C., HPLC
Description: Therefore, a formulation containing protein 4 also contains the enzymes responsible for polysorbate degradations and it is a suitable proxy for testing the propensity of enzymatic degradation during shelf life in real-world conditions. The formulation was complemented with either 0.02% PS80 or 0.04% of the amphiphilic surfactants VEDS, VEDG 2.2 or TPGS-1000 and incubated for one month at either 5° C. or 40° C.

Basophile cells = test: Basophile activation assay (B-cell activation); type: cell-based, human; settings: compared to polysorbate and B-cell activating positive control
Description: Basophile activation assay: Human whole blood was used to purify B-cells using an in vitro B-cell activation kit (Cellonic, Basotest, Cat #10-0500). Basophile cells were incubated in 100 μL 1×wash buffer containing the final surfactant concentration as the correct dilutions were prepared beforehand. Cell labeling, lysis and fixation was performed according to manufacturer instructions and subsequently analyzed using a BD FORTESSA flow cytometer. Leucocytes are gated via forward and sideward scatter. The Basophile subpopulation was gated on CD123 and IgE staining. Finally, activated Basophile cells were identified via CD203c and CD63 gating. All fluorescently labeled antibodies were provided in the kit stated above.

[3] = Quiescence stability study, oxidative and hydrolytic degradation of surfactant in Protein 2 formulation; settings: six months at 25° C., pull points every 1.5 months
protein 3 (mAb) = test: Orbital shaking forced degradation, particle count by micro-flow-imaging, Protein 3; type: physicochemical; settings: orbital shaking 250 rpm, ambient temperature, 0 h, 7 h and 24 h
Description: as §1, with “3.05 mg/mL Adipic Acid” for “20 mM Histidine, 220 mM Succrose”, “7” for “5.8”, “VitE” for “Vit E”
as §2
To each protein API was added the respective amount of surfactant (5% stock solution) needed to reach the final surfactant concentration (Brij58 0.01%; VitE variants 0.04%; SPGS-550-M 0.01%), as described earlier. 1.2 mL of sample was aliquoted in each 6R vial (2x). […]
(§4) Mechanical stress was generated through orbital shaking at 250 rpm at ambient temperature for 0 h, 7 h, 24 h and 48 h using an orbital shaker. Samples were subsequently analyzed via micro-flow-imaging (MFI). […]

protein 2 (Fab) = test: Orbital shaking forced degradation, particle count by micro-flow-imaging, Protein 2; type: physicochemical; settings: orbital shaking 250 rpm, ambient temperature, 0 h, 7 h and 24 h
Description: as §1, with “10” for “20”, “Histidine” for “Histidine, 220 mM Succrose”, “5” for “5.8”, “VitE” for “Vit E”
as §2, §3, §4

Human whole blood = test: Hemolysis assay; type: cell-based; settings: 37° C. for 1 h, compared to polysorbate and NaCl control
Description: Hemolysis assay: Human whole blood was incubated with surfactants at 37° C. for 1 h. Cells were spun down 10 min at 2000 g. The COBAS6000 biochemistry analyzers take an aliquot of the patient specimen and dilute it in saline solution (0.9% sodium chloride) to measure the absorbance for hemolysis at 570 nm (primary wavelength) and 600 nm (secondary wavelength). From these absorbance values the instrument calculates serum index values.

[4] = 48 h surfactant incubation, compared to LPS activated DC and no-treatment control

Row | Substance | equilibrium surface tension / surface activity (protein 1) | inhibition of platelet aggregation (Platelets) | mean fluorescence intensity (MFI) fold change, dendritic cell (DC) activation (dendritic cells; [4]) | particle count >2 μm/mL [1] | surfactant content (enzymatic degradation by HCPs) [2] | number of activated B cells (%) upon surfactant treatment (Basophile cells) | susceptibility to chemical degradation (surfactant content over time) [3] | particle count >2 μm/mL (protein 3 (mAb)) | surface tension level (protein 1; SPGS-550-M formulation with protein 1, 60 min) [mN/m] | particle count >2 μm/mL (protein 2 (Fab)) | inhibition of platelet aggregation compared to Brij58 (Platelets; in 3 out of 4 agonists) | mean fluorescence intensity (MFI) fold change, dendritic cell (DC) activation (dendritic cells; surfactant concentration 0.01% (w/v)) | hemolytic potential (Human whole blood)
1 | Vitamin E dimethyl succinate [VEDS] | even higher surface activity resulting in significant drop of surface tension | comparable platelet inhibition values as PS80 | perform better than TPGS1000; also recorded: no DC activation | perform better than TPGS-1000 | not affected by enzymatic degradation | lower level of B-cell activation than TPGS1000 | stable levels of surfactant contents | – | – | – | – | – | –
2 | β-sitosterol methoxyethyleneglycol succinate [SPGS-550-M] | even higher surface activity resulting in significant drop of surface tension | no effect on platelet aggregation | no DC activation | fewer particles than the current standard (PS20/80); also recorded: prevent particle formation | – | slightly increased levels of B-cell activation | almost linear degradation but not as severe as for PS80 | fewer particles than the current standard (PS20/80); also recorded: prevent particle formation | > 40 | fewer particles than the current standard (PS20/80); also recorded: prevent particle formation | – | – | –
3 | Brij58 succinate [Brij58succinate] | even higher surface activity resulting in significant drop of surface tension | higher inhibition of the aggregation compared to PS80 | – | prevent particle formation; also recorded: performs better than Brij58 | – | no B-cell activation | – | prevent particle formation | – | prevent particle formation | lower platelet inhibition compared to Brij58 | no B-cell activation | comparable to the polysorbate reference
